According to ChEMBL document CHEMBL1130965, “Inhibitors of farnesyl protein transferase. Synthesis and biological activity of amide and cyanoguanidine derivatives containing a 5,11-dihydro[1]benzthiepin, benzoxepin, and benzazepin [4,3-b]pyridine ring system” (Bioorg Med Chem Lett, 1998):

Biological target: Protein farnesyltransferase (Homo sapiens, UniProt P49354+P49356)
Experiment: In vitro FPT potency by measuring the ability to inhibit the transfer of [3H]farnesyl from farnesyl pyrophosphate to H-Ras-CLVS.
Type: protein-complex assay

## O=C(Cc1ccncc1)N1CCN(C2c3ccc(Cl)cc3CCc3cccnc32)CC1 (stereo unspecified)
  IC50: 36 nM
